Among the data in patent publication US8044069B2, “Compounds as calcium channel blockers” (Abbott Laboratories, priority 2008, dated 2011) are IC50 values, retold here.

Amino acid sequences for entries named in this document (tags omitted).
UniProt Q00975, whole entry, looked up: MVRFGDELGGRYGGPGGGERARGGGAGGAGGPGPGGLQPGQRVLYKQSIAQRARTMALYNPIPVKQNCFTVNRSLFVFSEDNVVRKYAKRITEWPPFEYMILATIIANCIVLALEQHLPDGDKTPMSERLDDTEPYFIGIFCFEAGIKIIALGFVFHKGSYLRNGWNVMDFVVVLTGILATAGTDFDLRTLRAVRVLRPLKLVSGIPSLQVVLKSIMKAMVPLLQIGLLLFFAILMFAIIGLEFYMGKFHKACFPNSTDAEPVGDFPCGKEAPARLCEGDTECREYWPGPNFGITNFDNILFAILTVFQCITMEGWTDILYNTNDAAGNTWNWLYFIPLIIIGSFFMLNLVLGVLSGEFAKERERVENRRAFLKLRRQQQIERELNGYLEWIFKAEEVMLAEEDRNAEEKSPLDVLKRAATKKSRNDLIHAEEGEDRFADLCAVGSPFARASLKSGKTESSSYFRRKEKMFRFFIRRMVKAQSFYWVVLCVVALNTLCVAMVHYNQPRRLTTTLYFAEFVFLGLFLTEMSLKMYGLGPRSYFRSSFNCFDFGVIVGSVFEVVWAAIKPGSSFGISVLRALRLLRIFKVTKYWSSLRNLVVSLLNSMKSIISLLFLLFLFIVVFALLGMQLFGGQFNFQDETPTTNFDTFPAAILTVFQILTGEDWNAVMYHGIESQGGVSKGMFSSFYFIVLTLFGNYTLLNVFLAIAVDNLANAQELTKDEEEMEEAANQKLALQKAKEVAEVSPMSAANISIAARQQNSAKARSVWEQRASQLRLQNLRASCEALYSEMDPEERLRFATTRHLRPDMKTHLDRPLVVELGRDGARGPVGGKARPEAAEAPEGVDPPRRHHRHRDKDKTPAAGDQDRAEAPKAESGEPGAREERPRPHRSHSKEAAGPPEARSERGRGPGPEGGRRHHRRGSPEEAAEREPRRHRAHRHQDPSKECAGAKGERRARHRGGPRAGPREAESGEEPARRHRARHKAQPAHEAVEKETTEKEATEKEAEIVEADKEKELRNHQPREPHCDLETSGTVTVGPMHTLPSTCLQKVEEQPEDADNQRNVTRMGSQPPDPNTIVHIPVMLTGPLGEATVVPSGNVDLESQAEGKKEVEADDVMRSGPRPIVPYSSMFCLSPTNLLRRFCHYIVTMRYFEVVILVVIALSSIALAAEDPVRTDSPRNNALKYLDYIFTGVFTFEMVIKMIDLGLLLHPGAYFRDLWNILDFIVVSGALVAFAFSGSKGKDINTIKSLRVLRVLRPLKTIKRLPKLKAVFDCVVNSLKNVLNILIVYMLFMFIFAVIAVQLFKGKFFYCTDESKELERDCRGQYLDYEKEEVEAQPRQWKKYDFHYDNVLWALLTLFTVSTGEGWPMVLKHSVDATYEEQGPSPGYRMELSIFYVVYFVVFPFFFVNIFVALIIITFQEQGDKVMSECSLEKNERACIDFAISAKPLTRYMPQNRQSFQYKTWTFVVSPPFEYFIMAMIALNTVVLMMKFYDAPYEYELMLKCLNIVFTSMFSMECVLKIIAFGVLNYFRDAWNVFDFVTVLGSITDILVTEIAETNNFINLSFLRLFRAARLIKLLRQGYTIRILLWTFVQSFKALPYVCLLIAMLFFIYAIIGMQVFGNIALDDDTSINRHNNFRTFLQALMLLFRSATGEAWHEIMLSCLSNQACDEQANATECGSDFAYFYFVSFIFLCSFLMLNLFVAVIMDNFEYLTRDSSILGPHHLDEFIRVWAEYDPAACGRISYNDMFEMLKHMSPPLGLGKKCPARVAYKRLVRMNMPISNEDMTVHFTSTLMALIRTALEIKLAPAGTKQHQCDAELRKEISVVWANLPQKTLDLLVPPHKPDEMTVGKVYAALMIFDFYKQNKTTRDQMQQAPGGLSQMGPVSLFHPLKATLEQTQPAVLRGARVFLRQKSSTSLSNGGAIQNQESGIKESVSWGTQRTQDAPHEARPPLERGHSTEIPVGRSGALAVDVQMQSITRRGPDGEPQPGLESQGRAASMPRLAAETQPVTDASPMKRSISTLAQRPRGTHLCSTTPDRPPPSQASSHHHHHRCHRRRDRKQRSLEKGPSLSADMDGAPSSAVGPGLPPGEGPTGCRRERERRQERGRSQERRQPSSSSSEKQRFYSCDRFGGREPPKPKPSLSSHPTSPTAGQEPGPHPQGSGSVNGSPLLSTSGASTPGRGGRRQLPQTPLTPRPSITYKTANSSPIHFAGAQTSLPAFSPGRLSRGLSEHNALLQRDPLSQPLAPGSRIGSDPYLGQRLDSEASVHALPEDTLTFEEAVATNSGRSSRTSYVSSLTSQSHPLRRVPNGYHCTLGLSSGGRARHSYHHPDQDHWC

In this assay the target is human Cav2.2 (Homo sapiens, UniProt Q00975). Briefly: Assessment of calcium channel activity using FLIPR (Ca2+ influx in IMR32 cells). Type of assay: cell-based. The settings on record: IMR32 cells endogenously expressing human Cav2.2; 60 minute pre-incubation; 2 μM nifedipine; depolarized with 80 mM KCl, 5 mM CaCl2.

In general, IC50 refers to the concentration at which inhibition is half-maximal. In the case of `O=C(CN1CCCC(c2ccccc2)(c2ccccc2)C1=O)N(c1ccc(C(F)(F)F)cc1)C1CCNCC1`, the IC50 came out at 3.12 µM.
